What all share (assay): SPR
In general terms: Surface plasmon resonance follows binding to a sensor surface in real time, without labels.

Amino acid sequences for entries named in this document (tags omitted). A change or cut given only in a name is not applied to a line headed by its entry.
UniProt P18858: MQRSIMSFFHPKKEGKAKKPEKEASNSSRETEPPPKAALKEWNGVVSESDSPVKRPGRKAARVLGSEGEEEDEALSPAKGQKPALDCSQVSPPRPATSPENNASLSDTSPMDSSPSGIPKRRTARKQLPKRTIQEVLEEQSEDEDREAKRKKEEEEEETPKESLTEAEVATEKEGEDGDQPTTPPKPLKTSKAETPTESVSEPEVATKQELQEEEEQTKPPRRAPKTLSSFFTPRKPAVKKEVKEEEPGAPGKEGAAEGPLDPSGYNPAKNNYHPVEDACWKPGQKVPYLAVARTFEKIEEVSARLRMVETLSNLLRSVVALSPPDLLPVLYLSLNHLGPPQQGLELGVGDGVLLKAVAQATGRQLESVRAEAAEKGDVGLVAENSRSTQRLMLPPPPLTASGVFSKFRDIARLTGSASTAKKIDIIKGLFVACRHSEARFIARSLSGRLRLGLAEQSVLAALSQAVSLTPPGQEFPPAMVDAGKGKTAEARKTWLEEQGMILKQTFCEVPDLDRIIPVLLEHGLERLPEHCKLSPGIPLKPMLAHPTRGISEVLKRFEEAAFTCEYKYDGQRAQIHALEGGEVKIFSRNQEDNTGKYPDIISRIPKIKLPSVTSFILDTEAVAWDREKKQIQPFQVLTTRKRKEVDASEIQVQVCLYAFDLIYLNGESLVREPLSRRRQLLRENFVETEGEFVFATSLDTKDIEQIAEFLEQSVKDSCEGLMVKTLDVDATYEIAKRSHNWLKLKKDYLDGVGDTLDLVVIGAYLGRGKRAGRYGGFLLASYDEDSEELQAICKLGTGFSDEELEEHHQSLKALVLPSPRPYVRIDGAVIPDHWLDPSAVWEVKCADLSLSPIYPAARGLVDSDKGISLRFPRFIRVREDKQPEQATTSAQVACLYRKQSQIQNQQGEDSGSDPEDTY

The target in assay [1] is human LIG1 peptide, K126me2, C-terminal biotin (human, UniProt P18858, di-methylated lysine at K126; biotin at the C-terminus).
For assay [2], the target named is human LIG1 peptide, unmodified (K126me0), C-terminal biotin (human, UniProt P18858, biotin at the C-terminus).
Assay [3] deals with human LIG1 peptide, K126me1, C-terminal biotin (human, UniProt P18858, mono-methylated lysine at K126; biotin at the C-terminus).

B1: human G9a SET-domain (residues 913–1193) (domain or fragment)
chain: NRAIRTEKIICRDVARGYENVPIPCVNGVDGEPCPEDYKYISENCETSTMNIDRNITHLQHCTCVDDCSSSNCLCGQLSIRCWYDKDGRLLQEFNKIEPPLIFECNQACSCWRNCKNRVVQSGIKVRLQLYRTAKMGWGVRALQTIPQGTFICEYVGELISDAEADVREDDSYLFDLDNKDGEVYCIDARYYGNISRFINHLCDPNIIPVRVFMLHQDLRFPRIAFFSSRDIRTGEELGFDYGDRFWDIKSKYFTCQCGSEKCKHSAEAIALEQSRLARLD
Turning to B1, the equilibrium dissociation constant (Kd) was greater than 1000 nM in assay [1], 550 nM in assay [2] and greater than 1000 nM in assay [3].

By Kd is commonly meant the equilibrium constant for the complex coming apart.

The record behind these values is article PMC6172828 (2018).
